Assay [1] addresses T1, hNav 1.1 sodium channel isoform (Homo sapiens, UniProt P35498).
T1 construct: expressed in transfected cells; host or cells: HEK293, transient transfection (Qiagen Superfect)
Nature of the assay: hNav1.1 whole-cell voltage-clamp assay. Format: cell-based. The conditions noted are these: use-dependent block, 10 Hz, read-out: NAV1.1* UDB-10HZ.

The target of assay [2] is T2, hNav 1.2 sodium channel isoform (Homo sapiens, UniProt Q99250).
T2 construct: expressed in transfected cells
Description: hNav1.2 whole-cell voltage-clamp assay. It is filed as cell-based. The settings on record: use-dependent block, 10 Hz, read-out: NAV1.2* UDB-10HZ. As for the experimental part:
Wild-type (WT) cDNA stably transfected in Chinese hamster ovary (CHO) cells is used to record INa. Unless otherwise noted, all reagents are purchased from Sigma-Aldrich (St Louis, Mo., U.S.A.).
Whole-cell voltage-clamp recordings are used to measure the biophysical properties of WT. […] Cells are allowed to stabilize for 10 min after establishment of the whole-cell configuration before current is measured. Series resistance is compensated 90% to assure that the command potential is reached within microseconds with a voltage error<2 mV. Leak currents are subtracted by using an online P/4 procedure and all currents are low-pass Bessel filtered at 5 kHz and digitized at 50 kHz. […]
Tonic block of peak current is measured using a step to −10 mV (20 ms) from a holding potential of −120 mV (0.2 Hz). Use-dependent block of peak current is measured during pulse number 300 of a pulse train (−10 mV, 5 ms, 300 pulses, 10 Hz or 25 Hz) from a holding potential of −120 mV. […]
For use-dependent studies, cells are stimulated with depolarizing pulse trains (−10 mV, 5 ms, 300 pulses, 10 and 25 Hz) from a holding potential of −120 mV. Currents are then normalized to the peak current recorded in response to the first pulse in each frequency train. For tonic block studies, peak current is evaluated in response to a 20 ms depolarization to −10 mV (0.2 Hz). […]

Turning to `O=C1c2cc(-c3ccc(C(F)(F)F)cc3)ccc2OCCN1Cc1ncccn1` [II-61, 4-(pyrimidin-2-ylmethyl)-7-(4-(trifluoromethyl)phenyl)-3,4-dihydrobenzo[f][1,4]oxazepin-5(2H)-one], the inhibition at 1 µM in assay [1] amounted to 9%; in assay [2] it was 25%.

Values taken from patent US9676760B2, “Fused heterocyclic compounds as ion channel modulators” (Gilead Sciences, Inc., priority 2011, dated 2017).
